Two molecules from ChEMBL document CHEMBL5725556, “Substituted aza-bicyclic imidazole derivatives useful TRPM8 receptor modulators” (2017) can be followed below.

The nature of the assay: Canine TRPM8 Functional Assay: HEK293 cells stably expressing canine TRPM8 were routinely grown as monolayers in Dulbecco's minimum essential medium supplemented with 10% FBS, 2 mM L-glutamine, 100 units/mL penicillin, 100 ug/mL streptomycin and 400 μg/mL G418. Cells were maintained in 5% CO2 at 37° C. At 24 hr prior to assay, cells were seeded in black wall, clear-base poly-D-lysine coated 384-well plates (BD Biosciences, NJ, USA) at a density of 5,000 cells per well in culture medium and grown overnight in 5% CO2 at 37° C. On assay day, growth media was removed, and cells were loaded with Calcium 3 Dye (Molecular Devices) for 35 min at 37° C., under 5% CO2 and then incubated for 25 min at room temperature and atmosphere. Subsequently, cells were tested for agonist-induced increases in intracellular Ca2+ levels using FLIPR or FDSS. Cells were treated with compounds of the formula (I) at varying concentrations and intracellular Ca2+ was measured for 5 min prior to the addition of icilin to each well to achieve a final concentration that produces an approximately 80% maximal response. In kind it is cell-based.

One may read the IC50 as the concentration that gives 50% inhibition. On to `COc1nc(-c2ccccc2Cl)cc2nc(-c3oc(Br)c(C(C)(C)C)c3C)[nH]c12`, for which the IC50 came to 33.9 nM. Next, `COc1nc(-c2ccccc2Cl)cc2nc(-c3cc(C(C)C)co3)[nH]c12`: 31.8 nM.
